Reference: patent US9150578B2, “5,8-dihydro-6H-pyrazolo[3,4-h]quinazolines as IGF-1R/IR inhibitors” (Boehringer Ingelheim International GmbH, priority 2012, dated 2015)

These compounds were tested on TC-71 (Ewing's sarcoma) cells (assay: Cell proliferation assay, TC-71 (Alamar Blue)). Conditions: TC-71 cells, 72 h, read-out: TC71 EC50 range.
Type: cell-based
Protocol: Cell Proliferation Assays
Published scientific data has described that interference with the Insulin-like Growth Factor-1 Receptor (IGF-1R) signaling pathway reduces the proliferation of TC-71 cells. Therefore TC-71 cells served as a positive control cell line for monitoring the activity of compounds against IGF-1R-mediated cell proliferation.
2000 TC-71 cells or 1000 HCT 116 cells were seeded per well in 180 μL IMDM+10% foetal calf serum (FCS)+penicillin/streptomycin into 96-well microtitre plates. The plates were placed in a cell culture incubator (37° C. in a humidified atmosphere of 95% […]/5 CO2) overnight. The following day, serial dilutions of compounds, prepared in duplicates, were transferred onto the cell layers (controls without compound). The cells were cultivated for a further 72 h in the cell culture incubator. 20 μL of Alamar Blue™ (Serotec Ltd, Düsseldorf, Germany) was added to each well and the plates incubated for 7 h in the cell culture incubator.
In the case of `CCn1cc(-c2ccc(-c3c4c(nn3C)CCc3cnc(Nc5ccn(CC)n5)nc3-4)cc2)cn1` [I-072], the EC50 is reported as under 10 nM. Work on `CCn1ccc(Nc2ncc3c(n2)-c2c(nn(C)c2-c2ccc(-c4cnn(C(C)C)c4)cc2)CC3)n1` [I-073] yielded an EC50 of under 10 nM. With `CCn1ccc(Nc2ncc3c(n2)-c2c(nn(C)c2Cc2cccc(-c4cnn(CCOC)c4)c2)CC3)n1` [I-074] the EC50 was under 10 nM. `CN(C)CCn1cc(Nc2ncc3c(n2)-c2c(nn(C)c2-c2ccc(-c4cnn(C)c4)cc2)CC3)cn1` [I-076] showed an EC50 of under 10 nM. With `CCn1ccc(Nc2ncc3c(n2)-c2c(nn(C)c2Cc2cccc(-c4cnn(C)c4)c2)CC3)n1` [I-077] the EC50 was under 10 nM. `CCn1ccc(Nc2ncc3c(n2)-c2c(nn(C)c2Cc2cccc(-c4cn[nH]c4)c2)CC3)n1` [I-078] showed an EC50 of under 10 nM. `CC(C)n1cc(-c2ccc(-c3c4c(nn3C)CCc3cnc(Nc5cnn(CC(=O)N(C)C)c5)nc3-4)cc2)cn1` [I-079] showed an EC50 of under 10 nM. `CCn1ccc(Nc2ncc3c(n2)-c2c(nn(C)c2-c2ccc(-c4cnn(CCOC)c4)cc2)CC3)n1` [I-080] gave an EC50 of under 10 nM. In the case of `CCn1ccc(Nc2ncc3c(n2)-c2c(nn(C)c2-c2ccc(-c4cnn(CCO)c4)cc2)CC3)n1` [I-081], the EC50 is reported as under 10 nM. Work on `CCn1ccc(Nc2ncc3c(n2)-c2c(nn(C)c2-c2ccc(-c4cnn(CCCOC)c4)cc2)CC3)n1` [I-082] yielded an EC50 of under 10 nM. In the case of `COCCCn1cc(-c2ccc(-c3c4c(nn3C)CCc3cnc(Nc5ccn(CCN(C)C)n5)nc3-4)cc2)cn1` [I-083], the EC50 is reported as under 10 nM. For `CN(C)CCn1ccc(Nc2ncc3c(n2)-c2c(nn(C)c2-c2ccc(-c4cnn(CC(=O)N(C)C)c4)cc2)CC3)n1` [I-084], the EC50 was under 10 nM. In the case of `CN(C)CCn1ccc(Nc2ncc3c(n2)-c2c(nn(C)c2-c2ccc(-c4cnn(CCO)c4)cc2)CC3)n1` [I-085], the EC50 is reported as under 10 nM. `CCn1cc(-c2cccc(Cc3c4c(nn3C)CCc3cnc(Nc5ccn(CC)n5)nc3-4)c2)cn1` [I-086] showed an EC50 of under 10 nM. For `CCCn1cc(-c2cccc(Cc3c4c(nn3C)CCc3cnc(Nc5ccn(CC)n5)nc3-4)c2)cn1` [I-087], the EC50 was under 10 nM. Work on `CCn1ccc(Nc2ncc3c(n2)-c2c(nn(C)c2Cc2cccc(-c4cnn(Cc5ccccc5)c4)c2)CC3)n1` [I-088] yielded an EC50 of under 10 nM. Work on `CCn1ccc(Nc2ncc3c(n2)-c2c(nn(C)c2Cc2cccc(-c4cnn(CC(C)C)c4)c2)CC3)n1` [I-089] yielded an EC50 of under 10 nM. `CCn1cc(-c2ccc(-c3c4c(nn3C)CCc3cnc(Nc5ccn(CCOC)n5)nc3-4)cc2)cn1` [I-090] was tested, and the EC50 was under 10 nM. In the case of `CCCn1cc(-c2ccc(-c3c4c(nn3C)CCc3cnc(Nc5ccn(CCOC)n5)nc3-4)cc2)cn1` [I-091], the EC50 is reported as under 10 nM. In the case of `COCCn1cc(-c2ccc(-c3c4c(nn3C)CCc3cnc(Nc5ccn(CCOC)n5)nc3-4)cc2)cn1` [I-092], the EC50 is reported as under 10 nM. `COCCn1ccc(Nc2ncc3c(n2)-c2c(nn(C)c2-c2ccc(-c4cnn(CCO)c4)cc2)CC3)n1` [I-093] was tested, and the EC50 was under 10 nM. For `COCCn1ccc(Nc2ncc3c(n2)-c2c(nn(C)c2-c2ccc(-c4cnn(CCN5CCOCC5)c4)cc2)CC3)n1` [I-094], the EC50 was under 10 nM. Compound `CCn1cc(-c2ccc(-c3c4c(nn3C)CCc3cnc(Nc5ccn(CC(=O)N(C)C)n5)nc3-4)cc2)cn1` [I-095] has an EC50 of under 10 nM. Work on `CCCn1cc(-c2ccc(-c3c4c(nn3C)CCc3cnc(Nc5ccn(CC(=O)N(C)C)n5)nc3-4)cc2)cn1` [I-096] yielded an EC50 of under 10 nM. With `COCCn1cc(-c2ccc(-c3c4c(nn3C)CCc3cnc(Nc5ccn(CC(=O)N(C)C)n5)nc3-4)cc2)cn1` [I-097] the EC50 was under 10 nM. `CN(C)C(=O)Cn1ccc(Nc2ncc3c(n2)-c2c(nn(C)c2-c2ccc(-c4cnn(CCO)c4)cc2)CC3)n1` [I-098] was tested, and the EC50 was under 10 nM. Work on `CN(C)C(=O)Cn1ccc(Nc2ncc3c(n2)-c2c(nn(C)c2-c2ccc(-c4cnn(CCN5CCOCC5)c4)cc2)CC3)n1` [I-099] yielded an EC50 of under 10 nM. Work on `CCn1cc(-c2cccc(Cc3c4c(nn3C)CCc3cnc(Nc5ccn(C)n5)nc3-4)c2)cn1` [I-104] yielded an EC50 of under 10 nM. `CCCn1cc(-c2cccc(Cc3c4c(nn3C)CCc3cnc(Nc5ccn(C)n5)nc3-4)c2)cn1` [I-105] showed an EC50 of under 10 nM. Work on `Cn1ccc(Nc2ncc3c(n2)-c2c(nn(C)c2Cc2cccc(-c4cn[nH]c4)c2)CC3)n1` [I-106] yielded an EC50 of under 10 nM.
